Here are results for 22 molecules from patent publication EP4603105A1, “PHARMACEUTICAL COMPOSITION CONTAINING CYCLIC COMPOUND HAVING SELECTIVE KRAS INHIBITORY EFFECT AGAINST HRAS AND NRAS” (CHUGAI SEIYAKU KABUSHIKI KAISHA, priority 2022, dated 2024).

Chains of the proteins cited; added tags and fusions are not shown.
UniProt P01112, whole entry: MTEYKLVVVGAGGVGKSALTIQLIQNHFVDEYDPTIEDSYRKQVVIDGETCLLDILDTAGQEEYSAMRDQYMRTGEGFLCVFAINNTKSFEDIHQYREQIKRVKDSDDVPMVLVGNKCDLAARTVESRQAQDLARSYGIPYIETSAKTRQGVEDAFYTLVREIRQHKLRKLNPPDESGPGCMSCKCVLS

In the first assay the target is HRAS wild-type protein (Homo sapiens, UniProt P01112). The experiment in a line: Binding to HRAS by surface plasmon resonance (SPR), KD and KD ratio to KRAS. Particulars: ratio of KD for HRAS wild-type protein to KD for KRAS.
Turning to `CCOC[C@H]1C(=O)N[C@@H]([C@@H](C)CC)C(=O)N(C)CC(=O)N(C)[C@H]2C/C=C\CCN(C2=O)[C@@H](CC2CCC(F)(F)CC2)C(=O)N(C)CC(=O)N[C@@H](CCc2ccc(C(F)(F)F)c(OC)c2)C(=O)N2C[C@H](OCC)C[C@H]2C(=O)NC2(CC(C)(C)C2)C(=O)N(C)[C@@H](C(CC)CC)C(=O)N(C)[C@H](C(=O)N(C)C)CC(=O)N1C`, the “HRAS /KRAS” value is “A (a compound having 10 or more and less than 20 is denoted as A)”.
For the molecule `CC[C@H](C)[C@@H]1NC(=O)[C@H](COC)N(C)C(=O)C[C@@H](C(=O)N(C)C)N(C)C(=O)[C@H](C2CCCC2)N(C)C(=O)C2(CC(C)(C)C2)NC(=O)[C@@H]2C[C@H](C)CN2C(=O)[C@H](CCc2ccc(C(F)(F)F)c(OC)c2)NC(=O)CN(C)C(=O)[C@H](Cc2ccc(C)cc2)N2CC/C=C\C[C@@H](C2=O)N(C)C(=O)CN(C)C1=O`, the “HRAS /KRAS” value was “B (a compound having 3 or more and less than 10 is denoted as B)”.

The assay is the same for the next values; noted with them: ratio of KD with respect to HRAS wild-type protein to KD with respect to KRAS.
As for `CCO[C@@H]1C[C@H]2C(=O)NC3(CCC3)C(=O)N(C)[C@@H](C3CCCC3)C(=O)N(C)[C@H](C(=O)N3CCOCC3)CC(=O)N(C)[C@@H](CC3CCCC3)C(=O)N[C@@H]([C@@H](C)CC)C(=O)N(C)CC(=O)N(C)[C@H]3C/C=C\CCN(C3=O)[C@@H](Cc3ccc(C)cc3)C(=O)N(C)CC(=O)N[C@@H](CCc3cc(F)c(C(F)(F)F)c(F)c3)C(=O)N2C1`, the “HRAS /KRAS” value is “A (a compound having 10 or more and less than 20 is denoted as A)”.
On the same count and under the same terms, the same measure for `CCO[C@@H]1C[C@H]2C(=O)NC3(CCC3)C(=O)N(C)[C@@H](C3CCCC3)C(=O)N(C)[C@H](C(=O)N3CCCCC3)CC(=O)N(C)[C@@H](C)C(=O)N[C@@H]([C@@H](C)CC)C(=O)N(C)CC(=O)N(C)[C@H]3C/C=C\CCN(C3=O)[C@@H](Cc3ccc(C(F)(F)F)cc3)C(=O)N(C)CC(=O)N[C@@H](CCc3cc(F)c(C(F)(F)F)c(F)c3)C(=O)N2C1`: “A (a compound having 10 or more and less than 20 is denoted as A)”; for `CCO[C@@H]1C[C@H]2C(=O)NC3(CCOCC3)C(=O)N(C)[C@@H](C3CCCC3)C(=O)N(C)[C@H](C(=O)N(C)C)CC(=O)N(C)[C@@H](CC)C(=O)N[C@@H]([C@@H](C)CC)C(=O)N(C)CC(=O)N(C)[C@H]3C/C=C\CCN(C3=O)[C@@H](Cc3ccc(C(F)(F)F)cc3)C(=O)N(C)CC(=O)N[C@@H](CCc3cc(F)c(C(F)(F)F)c(F)c3)C(=O)N2C1`: “A (a compound having 10 or more and less than 20 is denoted as A)”; for `CCO[C@@H]1C[C@H]2C(=O)NC3(CCC3)C(=O)N(C)[C@@H](C3CCCC3)C(=O)N(C)[C@H](C(=O)N(C)C)CC(=O)N(C)[C@@H](CC3CC3)C(=O)N[C@@H]([C@@H](C)CC)C(=O)N(C)CC(=O)N(C)[C@H]3C/C=C\CCN(C3=O)[C@@H](Cc3ccc(F)cc3)C(=O)N(C)CC(=O)N[C@@H](CCc3ccc(Cl)c(Cl)c3)C(=O)N2C1`: “A (a compound having 10 or more and less than 20 is denoted as A)”.
As to `CC[C@H](C)[C@@H]1NC(=O)[C@H](CC)N(C)C(=O)C[C@@H](C(=O)N(C)C)N(C)C(=O)[C@H](C2CCCC2)N(C)C(=O)C2(CCC2)NC(=O)[C@@H]2COCCN2C(=O)[C@H](CCc2cc(F)c(C(F)(F)F)c(F)c2)NC(=O)CN(C)C(=O)[C@H](Cc2ccc(C(F)(F)F)cc2)N2CC/C=C\C[C@@H](C2=O)N(C)C(=O)CN(C)C1=O`, the “HRAS /KRAS” value is “A (a compound having 10 or more and less than 20 is denoted as A)”.
Same read-out and setting: next, `CC[C@H](C)[C@@H]1NC(=O)[C@H](CC)N(C)C(=O)C[C@@H](C(=O)N2CCOCC2)N(C)C(=O)[C@H](C2CCCC2)N(C)C(=O)C2(CCC2)NC(=O)[C@@H]2CCCN2C(=O)[C@H](CCc2cc(F)c(C(F)(F)F)c(F)c2)NC(=O)CN(C)C(=O)[C@H](Cc2ccc(C(F)(F)F)cc2)N2C[C@H](C)[C@H](C)C[C@@H](C2=O)N(C)C(=O)[C@@H]2CCN2C1=O`: “B (a compound having 3 or more and less than 10 is denoted as B)”; `CCO[C@@H]1C[C@H]2C(=O)NC3(CCC3)C(=O)N(C)[C@@H](C3CCCC3)C(=O)N(C)[C@H](C(=O)N(C)C)CC(=O)N(C)[C@@H](COC)C(=O)N[C@@H]([C@@H](C)CC)C(=O)N(C)CC(=O)N(C)[C@H]3CCCCCN(C3=O)[C@@H](Cc3ccc(F)cc3)C(=O)N(C)CC(=O)N[C@@H](CCc3cc(F)c(C(F)(F)F)c(F)c3)C(=O)N2C1`: “B (a compound having 3 or more and less than 10 is denoted as B)”; `CC[C@H](C)[C@@H]1NC(=O)[C@H](CC2CC2)N(C)C(=O)C[C@@H](C(=O)N(C)C)N(C)C(=O)[C@H](C2CCCC2)N(C)C(=O)C2(CCCC2)NC(=O)[C@@H]2CCCN2C(=O)[C@H](CCc2ccc(C(F)(F)F)c(Cl)c2)NC(=O)CN(C)C(=O)[C@H](Cc2ccc(C(F)(F)F)cc2)N2C[C@H](C)CC[C@@H](C2=O)N(C)C(=O)CN(C)C1=O`: “B (a compound having 3 or more and less than 10 is denoted as B)”.
Still for that read-out and setting: the same measure for `CC[C@H](C)[C@@H]1NC(=O)[C@H](CC2CC2)N(C)C(=O)C[C@@H](C(=O)N2CCOCC2)N(C)C(=O)[C@H](C2CCCC2)N(C)C(=O)C2(CCC2)NC(=O)[C@@H]2CCCN2C(=O)[C@H](CCc2ccc(C(F)(F)F)c(Cl)c2)NC(=O)CN(C)C(=O)[C@H](Cc2ccc(C(F)(F)F)cc2)N2C[C@H](C)CC[C@@H](C2=O)N(C)C(=O)CN(C)C1=O`: “B (a compound having 3 or more and less than 10 is denoted as B)”; for `CCOC1CC2C(=O)NC3(CCC3)C(=O)N(C)C(C3CCCC3)C(=O)N(C)C(C(=O)N3CCOCC3)CC(=O)N(C)C(CC3CCCCC3)C(=O)NC(C(C)CC)C(=O)N(C)CC(=O)N(C)C3CC=CCCN(C3=O)C(Cc3ccc(C(F)(F)F)cc3)C(=O)N(C)CC(=O)NC(CCc3cc(F)c(C(F)(F)F)c(F)c3)C(=O)N2C1` (stereo not shown): “A (a compound having 10 or more and less than 20 is denoted as A)”; for `CCO[C@@H]1C[C@H]2C(=O)NC3(CCC3)C(=O)N(C)[C@@H](C3CCCC3)C(=O)N(C)[C@H](C(=O)N(C)C)CC(=O)N(C)[C@@H](CC)C(=O)N[C@@H]([C@@H](C)CC)C(=O)N(C)CC(=O)N(C)[C@H]3C/C=C\CCN(C3=O)[C@@H](Cc3ccc(C(F)(F)F)cc3)C(=O)N(C)CC(=O)N[C@@H](CCc3ccc4sccc4c3)C(=O)N2C1`: “A (a compound having 10 or more and less than 20 is denoted as A)”.
On the same count and under the same terms, next, `CCOC1CC2C(=O)NC3(CCC3)C(=O)N(C)C(C3CCCC3)C(=O)N(C)C(C(=O)N3CCOCC3)CC(=O)N(C)C(Cc3ccc(Cl)c(Cl)c3)C(=O)NC(C(C)CC)C(=O)N(C)CC(=O)N(C)C3CCCCCN(C3=O)C(Cc3ccc(C(F)(F)F)cc3)C(=O)N(C)CC(=O)NC(CCc3cc(F)c(C(F)(F)F)c(F)c3)C(=O)N2C1` (stereo not shown): “A (a compound having 10 or more and less than 20 is denoted as A)”; `CCO[C@@H]1C[C@H]2C(=O)NC3(CCC3)C(=O)N(C)[C@@H](C3CCCC3)C(=O)N(C)[C@H](C(=O)N(C)C)CC(=O)N(C)[C@@H](CSC)C(=O)N[C@@H]([C@@H](C)CC)C(=O)N(C)CC(=O)N(C)[C@H]3C/C=C\CCN(C3=O)[C@@H](CC3CCC(F)(F)CC3)C(=O)N(C)CC(=O)N[C@@H](CCc3cc(F)c(C(F)(F)F)c(F)c3)C(=O)N2C1`: “A (a compound having 10 or more and less than 20 is denoted as A)”; `CC[C@H](C)[C@@H]1NC(=O)[C@H](CC)N(C)C(=O)C[C@@H](C(=O)N(C)C)N(C)C(=O)[C@H](C2CCCC2)N(C)C(=O)C2(CCC2)NC(=O)[C@@H]2CSCCN2C(=O)[C@H](CCc2cc(F)c(C(F)(F)F)c(F)c2)NC(=O)CN(C)C(=O)[C@H](Cc2ccc(C(F)(F)F)cc2)N2CC/C=C\C[C@@H](C2=O)N(C)C(=O)CN(C)C1=O`: “A (a compound having 10 or more and less than 20 is denoted as A)”.
On to `CCOC1CC2C(=O)NC3(CCC3)C(=O)N(C)C(C3CCCC3)C(=O)N(C)C(C(=O)N3CCOCC3)CC(=O)N(C)C(Cc3cccc(C#N)c3)C(=O)NC(C(C)CC)C(=O)N(C)CC(=O)N(C)C3CCCCCN(C3=O)C(Cc3ccc(F)cc3)C(=O)N(C)CC(=O)NC(CCc3cc(F)c(C(F)(F)F)c(F)c3)C(=O)N2C1` (stereo not shown), for which the “HRAS /KRAS” value is “B (a compound having 3 or more and less than 10 is denoted as B)”.
Still for that read-out and setting: next, `CCC[C@H]1C(=O)N[C@@H]([C@@H](C)CC)C(=O)N(C)CC(=O)N(C)[C@H]2C/C=C\CCN(C2=O)[C@@H](Cc2ccc(C(F)(F)F)cc2)C(=O)N(C)CC(=O)N[C@@H](CCc2cc(F)c(C(F)(F)F)c(F)c2)C(=O)N2C[C@H](OCC)C[C@H]2C(=O)NC2(CCC2)C(=O)N(C)[C@@H](C2CCCC2)C(=O)N(C)[C@H](C(=O)N2CCOCC2)CC(=O)N1C`: “A (a compound having 10 or more and less than 20 is denoted as A)”; `CCO[C@@H]1C[C@H]2C(=O)NC3(CCC3)C(=O)N(C)[C@@H](C3CCCC3)C(=O)N(C)[C@H](C(=O)N(C)C)CC(=O)N(C)[C@@H](CC(C)C)C(=O)N[C@@H]([C@@H](C)CC)C(=O)N(C)CC(=O)N(C)[C@H]3C/C=C\CCN(C3=O)[C@@H](CC3CCC(F)(F)CC3)C(=O)N(C)CC(=O)N[C@@H](CCc3cc(F)c(C(F)(F)F)c(F)c3)C(=O)N2C1`: “A (a compound having 10 or more and less than 20 is denoted as A)”; `CCO[C@@H]1C[C@H]2C(=O)NC3(CCC3)C(=O)N(C)[C@@H](C3CCCC3)C(=O)N(C)[C@H](C(=O)N(C)C)CC(=O)N(C)[C@@H](CC)C(=O)N[C@@H]([C@@H](C)CC)C(=O)N(C)CC(=O)N(C)[C@H]3C/C=C\CCN(C3=O)[C@@H](CC3CCC(F)(F)CC3)C(=O)N(C)CC(=O)N[C@@H](CCc3cc(F)c(C(F)(F)F)c(F)c3)C(=O)N2C1`: “A (a compound having 10 or more and less than 20 is denoted as A)”.
For `CCO[C@@H]1C[C@H]2C(=O)NC3(CCC3)C(=O)N(C)[C@@H](C3CCCC3)C(=O)N(C)[C@H](C(=O)N3CCOCC3)CC(=O)N(C)[C@@H](COC)C(=O)N[C@@H]([C@@H](C)CC)C(=O)N(C)CC(=O)N(C)[C@H]3CCCCCN(C3=O)[C@@H](Cc3ccc(F)cc3)C(=O)N(C)CC(=O)N[C@@H](CCc3cc(F)c(C(F)(F)F)c(F)c3)C(=O)N2C1`, the “HRAS /KRAS” value is “B (a compound having 3 or more and less than 10 is denoted as B)”.
Still for that read-out and setting: next, `CCO[C@@H]1C[C@H]2C(=O)NC3(CCC3)C(=O)N(C)[C@@H](C3CCCC3)C(=O)N(C)[C@H](C(=O)N(C)C)CC(=O)N(C)[C@@H](CC(C)C)C(=O)N[C@@H]([C@@H](C)CC)C(=O)N(C)CC(=O)N(C)[C@H]3C/C=C\CCN(C3=O)[C@@H](Cc3ccc(F)cc3)C(=O)N(C)CC(=O)N[C@@H](CCc3ccc4sccc4c3)C(=O)N2C1`: “B (a compound having 3 or more and less than 10 is denoted as B)”.
